Patent US5776685A, “Protein kinase C assay” (Joslin Diabetes Center, priority 1996, dated 1998)

Amino acid sequences for entries named in this document (tags omitted). Residues count along the entry.
UniProt P68403, 2-671: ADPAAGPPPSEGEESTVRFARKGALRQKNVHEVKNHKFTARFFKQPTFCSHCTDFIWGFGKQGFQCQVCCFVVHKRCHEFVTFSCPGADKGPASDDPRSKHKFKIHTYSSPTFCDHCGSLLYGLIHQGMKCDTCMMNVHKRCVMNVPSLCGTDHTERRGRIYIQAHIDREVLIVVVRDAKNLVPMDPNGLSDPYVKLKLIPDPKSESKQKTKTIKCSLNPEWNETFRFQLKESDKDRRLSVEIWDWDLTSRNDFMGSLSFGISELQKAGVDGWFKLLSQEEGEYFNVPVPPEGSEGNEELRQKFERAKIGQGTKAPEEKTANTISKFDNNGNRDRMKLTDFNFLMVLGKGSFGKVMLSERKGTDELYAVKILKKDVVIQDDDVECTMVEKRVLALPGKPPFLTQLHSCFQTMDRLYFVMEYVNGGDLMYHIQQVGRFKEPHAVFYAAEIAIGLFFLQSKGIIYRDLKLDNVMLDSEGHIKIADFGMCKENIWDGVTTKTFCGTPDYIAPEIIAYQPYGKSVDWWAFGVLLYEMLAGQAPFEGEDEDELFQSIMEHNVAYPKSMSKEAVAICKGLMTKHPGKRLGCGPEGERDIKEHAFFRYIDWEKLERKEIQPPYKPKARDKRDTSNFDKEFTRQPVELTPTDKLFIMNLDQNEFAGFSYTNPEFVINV

Target: T1, rat PKC β-1 (Rattus norvegicus, UniProt P68403)
T1 construct: we inserted the complete protein coding cDNA of rat PKC β-1; made in house; host or cells: Saccharomyces cerevisiae strain 334, YEp51 with GAL10 promoter; crude detergent cell extract
Experiment: [3H]PDBu binding to yeast spheroplasts expressing PKC beta-1 forms

CCCC(=O)O[C@@H]1[C@@H](C)[C@@]2(O)[C@@H](C=C(CO)C[C@]3(O)C(=O)C(C)=C[C@@H]23)[C@@H]2C(C)(C)[C@]12OC(=O)CCC [PDBu, phorbol-12, 13-dibutyrate]
Kd: 80 nM
